Structures are written as SMILES. Only a part is listed here, and it is no random draw. Activity calls are given as the source filed them.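 The calls were made as follows: active = activation of at least 50%, plus an integration ratio under a set limit after plate pattern correction; inactive = the rest.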

For the assay, the system named is CRF-binding protein / CRF receptor 2 complex (human). In words: activators of CRF-R2 with CRF-BP – cell-based, HEK293, calcium dye fluorescence, uHTS, primary screen (AID 588473).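 Also: plate controls were neutral control wells without compound for no effect and CRF at EC100 for full effect.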 The following applies: calcium dye fluorescence (FLIPR), at 13.2 µM, active compounds read high, percent of saturating CRF peptide response.
For the compound `CCC(=O)N(c1ccccc1)C1(COC)CCN(CCc2cccs2)CC1`, the activation is inactive: -1.11%.

Take `CCC(=O)N(c1ccccc1)C1(COC)CCN(CCn2nnn(CC)c2=O)CC1`: the activation was inactive: -0.06%.

The record behind these values is PubChem BioAssay AID588473 (Sanford-Burnham Center for Chemical Genomics, 2011).
